# Literature values as cited in patent publication US20230355571A1, “METHOD FOR TREATING VIRAL AND BACTERIAL INFECTION THROUGH INHALATION THERAPY” (priority 2020, published 2023).
# Protein sequences, listed by entry. Tags and fused reporters are not part of them.
# UniProt P34972, whole entry: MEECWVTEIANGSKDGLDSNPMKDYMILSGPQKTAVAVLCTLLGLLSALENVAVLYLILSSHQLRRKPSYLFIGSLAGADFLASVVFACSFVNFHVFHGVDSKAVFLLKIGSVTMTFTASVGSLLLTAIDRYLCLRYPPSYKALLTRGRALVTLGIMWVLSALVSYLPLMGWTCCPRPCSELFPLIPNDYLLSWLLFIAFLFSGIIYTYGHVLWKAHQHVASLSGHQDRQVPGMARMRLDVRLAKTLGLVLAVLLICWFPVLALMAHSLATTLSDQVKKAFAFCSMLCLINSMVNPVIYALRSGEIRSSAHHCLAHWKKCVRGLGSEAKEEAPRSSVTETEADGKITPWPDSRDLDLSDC
# pKi: −log10 of the molar value.
# Biological target: CB2 receptor (Homo sapiens, UniProt P34972)
# Conditions: read-out: Ki, CB2 receptor binding; cited from earlier work
smiles,measurement,value
"C=C(C)[C@@H]1CCC(C)=C[C@H]1c1c(O)cc(CCCCC)cc1O [CBD, Cannabidiol]",pKi,5.57
